Literature values, collected in patent US7829562B2, “Sigma ligands for neuronal regeneration and functional recovery” (M's Science Corporation, priority 2003, dated 2010).

The chains behind the UniProt entries cited, without tags or fusion partners.
UniProt Q99720, whole entry: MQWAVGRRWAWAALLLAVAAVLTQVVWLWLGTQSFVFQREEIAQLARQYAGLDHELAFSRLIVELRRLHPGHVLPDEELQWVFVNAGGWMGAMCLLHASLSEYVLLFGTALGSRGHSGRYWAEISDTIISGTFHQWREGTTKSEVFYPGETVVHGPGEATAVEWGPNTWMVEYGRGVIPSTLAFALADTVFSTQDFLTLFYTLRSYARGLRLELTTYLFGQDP

Biological target: sigma-1 site compared to the sigma-2 site (Homo sapiens, UniProt Q99720)
Conditions: (+) isomers of benzomorphan opiates; cited from earlier work

Q: Which “affinity for the sigma-1 site compared to the sigma-2 site” value does the source give for (+)SKF 10,047 here?
A: Its value is “nearly two orders of magnitude higher affinity”.
